What all share (format): cell-based
One assay relates to S. pneumoniae MSC10197. The assay is described as follows: MIC against S. pneumoniae MSC10197 (CLSI M7-A7 agar method). The settings on record: Streptococcus pneumoniae, MSC10197, read-out: minimal inhibitory concentration (MIC). On the procedure: (§1) For representative compounds among lincomycin derivatives according to the present invention, the minimal inhibitory concentration (MIC, […]) against various pneumococci was measured according to the method described in Clinical and Laboratory Standards Institute, M7-A7, 2006. Sensitivity disk agar-N+5% horse aseptic defibranated blood was used as the medium for the measurement. The amount of bacteria inoculated was about 10^4 CFU/ml.

The subject of the next assay is S. pneumoniae MSC07571. The assay is described as follows: MIC against S. pneumoniae MSC07571 (CLSI M7-A7 agar method). The following applies: Streptococcus pneumoniae, MSC07571, read-out: minimal inhibitory concentration (MIC). On the procedure:
as §1

The subject of another assay is S. pneumoniae MSC17994. The assay is described as follows: MIC against S. pneumoniae MSC17994 (CLSI M7-A7 agar method). The settings on record: Streptococcus pneumoniae, MSC17994, read-out: minimal inhibitory concentration (MIC). On the procedure: as §1
Another assay has as its system S. pneumoniae MSC07465. The assay is described as follows: MIC against S. pneumoniae MSC07465 (CLSI M7-A7 agar method). The settings on record: Streptococcus pneumoniae, MSC07465, read-out: minimal inhibitory concentration (MIC). As for the experimental part: as §1

Values after ≈ are worked out from the molar mass of the structure shown.

Take `CCC[C@@H]1C[C@@H](C(=O)N[C@@H]([C@H]2O[C@H](SC)[C@H](O)[C@@H](O)[C@H]2O)[C@H](C)Cl)N(C)C1` [CLDM, clindamycin, reference compound]: the MIC in the assay with S. pneumoniae MSC10197 turned out to be 30 µg/mL (≈ 70.6 µM); in the assay on S. pneumoniae MSC07571, 60 µg/mL (≈ 141 µM); in the assay with S. pneumoniae MSC17994, 60 µg/mL (≈ 141 µM); with S. pneumoniae MSC07465 it was 30 µg/mL (≈ 70.6 µM).

These data come from patent publication US7879808B2, “Lincomycin derivatives and antimicrobial agents comprising the same as active ingredient” (Meiji Seika Kaisha, Ltd., priority 2007, dated 2011).
